# PubChem BioAssay AID1671463 (Sanford-Burnham Center for Chemical Genomics, 2021)
# Chains of the proteins cited; added tags and fusions are not shown. Lines headed by an entry give the natural chain unless they say otherwise; changes in a name come on top.
# UniProt P16066: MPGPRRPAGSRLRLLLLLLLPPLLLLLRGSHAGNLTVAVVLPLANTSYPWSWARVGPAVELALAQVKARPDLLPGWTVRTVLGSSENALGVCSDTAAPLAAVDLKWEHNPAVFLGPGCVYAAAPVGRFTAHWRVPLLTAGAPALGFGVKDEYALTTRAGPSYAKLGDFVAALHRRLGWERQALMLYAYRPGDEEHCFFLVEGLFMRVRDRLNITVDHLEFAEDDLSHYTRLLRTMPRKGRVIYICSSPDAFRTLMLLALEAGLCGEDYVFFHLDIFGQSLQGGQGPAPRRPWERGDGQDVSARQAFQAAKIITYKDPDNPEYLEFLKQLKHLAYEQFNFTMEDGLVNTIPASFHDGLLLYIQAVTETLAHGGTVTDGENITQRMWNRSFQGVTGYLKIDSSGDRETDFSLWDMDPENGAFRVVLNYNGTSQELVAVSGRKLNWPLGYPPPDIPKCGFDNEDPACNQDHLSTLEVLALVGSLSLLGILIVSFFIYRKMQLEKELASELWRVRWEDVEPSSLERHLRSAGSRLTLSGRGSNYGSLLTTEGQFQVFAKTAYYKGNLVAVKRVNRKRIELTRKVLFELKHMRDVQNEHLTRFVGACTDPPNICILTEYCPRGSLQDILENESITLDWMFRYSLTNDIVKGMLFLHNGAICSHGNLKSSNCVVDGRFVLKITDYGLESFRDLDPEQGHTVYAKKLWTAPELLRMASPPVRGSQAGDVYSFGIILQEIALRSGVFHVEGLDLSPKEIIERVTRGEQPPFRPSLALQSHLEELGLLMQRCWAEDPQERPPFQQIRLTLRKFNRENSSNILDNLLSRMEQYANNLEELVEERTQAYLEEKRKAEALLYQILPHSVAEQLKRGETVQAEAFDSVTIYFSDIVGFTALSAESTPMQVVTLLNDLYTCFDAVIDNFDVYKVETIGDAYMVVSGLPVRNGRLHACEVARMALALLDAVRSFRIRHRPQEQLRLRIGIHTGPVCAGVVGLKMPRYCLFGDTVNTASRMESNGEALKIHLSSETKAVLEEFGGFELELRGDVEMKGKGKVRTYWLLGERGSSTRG
# Only a part is listed here, and it is no random draw. The source made the active and inactive calls. No stated cut-off is given here; in the data, active means activation above about 40%; inactive means the rest.
# Biological target: Atrial natriuretic peptide receptor 1 (Homo sapiens) (UniProt P16066)
# Experiment: GC-A stimulated cGMP production enhancers – HEK293 GC-A cells, cGMP TR-FRET, EC30 ANP, primary screen (AID 1671463)
# Settings: at 10 µM, active compounds read high, 0% at EC30 ANP, 100% saturating ANP
row,Compound,activation
1,CCOP(=O)(Nc1ccc(C)cn1)OCC,inactive: 0.85%
2,CN(C(=O)Cc1ccc(Cl)c(Cl)c1)[C@@H]1CCCC[C@H]1N1CCCC1,inactive: -1.59%
3,CC(C)/C=N\N=C(\N)N[N+](=O)[O-],inactive: 3.3%
4,CN(C(=O)Cc1ccc(Cl)c(Cl)c1)C1CCCC[C@@H]1N1CCCC1 (stereo partly specified),inactive: -3.64%
5,CC1(CBr)Cn2c(nc3ccccc3c2=O)S1 (stereo unspecified),inactive: 10.1%
6,COc1ccccc1CNC(=O)COC(=O)C(O)(c1ccccc1)c1ccccc1,inactive: 0.41%
7,O=C(O)C(=O)c1ccc(N(CCCl)CCCl)cc1,inactive: -1.06%
8,O=C(COc1ccccc1)OC1CN2CCC1CC2 (stereo unspecified),inactive: -0.47%
9,O=C(Nc1ccncc1[N+](=O)[O-])c1ccc([N+](=O)[O-])cc1[N+](=O)[O-],inactive: 1.23%
10,COP1(=S)c2c(C)nn(CCC#N)c2N=C(c2ccc(F)cc2)N1C (stereo unspecified),inactive: 2.35%
11,COC(=O)C1(C)COP(=O)(N2CCCC2)OC1 (stereo unspecified),inactive: 2%
12,CCC(C)N(CC(C)C)C(=S)SC(NC(C)=O)C(Cl)(Cl)Cl (stereo unspecified),inactive: -26.9%
13,O=C(OC1CN2CCC1CC2)c1cccc([N+](=O)[O-])c1 (stereo unspecified),inactive: 0.77%
14,CCOC(=O)c1ccc(NC(=O)C(C)(CCl)SC)cc1 (stereo unspecified),inactive: 1.76%
15,COP(=O)(OC)N1CC1c1ccccc1 (stereo unspecified),inactive: -0.85%
16,CCCCOc1ccc(C(=O)NCC2(N3CCCCC3)CCCCC2)cc1OC,inactive: 0.2%
17,Cc1cc(SC(NC(=O)c2ccccc2)C(Cl)(Cl)Cl)nc(C(C)C)n1 (stereo unspecified),inactive: 2.64%
18,O=C(O)C(O)c1ccc(N(CCCl)CCCl)cc1 (stereo unspecified),inactive: -1.2%
19,CCOC(=O)Nc1ccc([As](=O)(O)O)c(O)c1,inactive: 3.95%
20,CC1CCNP(=O)(N(CCCl)CCCl)O1 (stereo unspecified),inactive: 3.29%
21,Cc1cc(SC(NC=O)C(Cl)(Cl)Cl)ncn1 (stereo unspecified),inactive: 2.03%
22,O=P(Nc1ccccn1)(c1cccc2ccccc12)c1cccc2ccccc12,inactive: -12.3%
23,O=[N+]([O-])c1ccc(Nc2ccc(Oc3ccc([N+](=O)[O-])cc3[N+](=O)[O-])cc2)c([N+](=O)[O-])c1,inactive: -1.32%

row,Compound,activation
1,CCOC(=O)Nc1cccc([As](=O)(O)O)c1,inactive: 0.36%
2,Cc1ccc(OP(=O)(Nc2ccc([N+](=O)[O-])cn2)Oc2ccc(C)cc2)cc1,inactive: -1.51%
3,[N-]=[N+]=NC1CCCCC1NC(=O)c1cc([N+](=O)[O-])cc([N+](=O)[O-])c1 (stereo unspecified),inactive: -6.61%
4,Cc1ccc2nc3c(c(C)c2c1)CC(C(Cl)Cl)S3 (stereo unspecified),inactive: -1.85%
5,C[As](=O)(O)c1cccc(C(=O)O)c1,inactive: -1.02%
6,O=[As](O)(c1ccc(O)cc1)c1ccccc1O,inactive: -0.54%
7,COc1cc(C(=O)NCC2(N3CCOCC3)CCCCC2)ccc1OCC(C)C,inactive: 0.66%
8,O=[N+]([O-])c1ccc(-c2cc([N+](=O)[O-])c(O)c([N+](=O)[O-])c2)cc1,inactive: -2.37%
9,O=C(OC1CN2CCC1CC2)c1cccc2[nH]cnc12 (stereo unspecified),inactive: -2.15%
10,CCN(CC)C(=S)SC(NC=O)C(Cl)(Cl)Cl (stereo unspecified),inactive: 0.78%
11,CC(C)NC(=O)NP(=O)(Oc1ccccc1)Oc1ccccc1,inactive: -1.49%
12,ClCCSc1nnc(-c2cccnc2)o1,inactive: -4.38%
13,CC(C)c1ccc(OP(=O)(Nc2ccccn2)Oc2ccccc2F)cc1 (stereo unspecified),inactive: 1.29%
14,COC(=O)C1(C)COP(=O)(N2CCCCCC2)OC1 (stereo unspecified),inactive: 2.19%
15,O=P1(N(CCCl)CCCl)Nc2ccccc2N1,inactive: -2.89%
16,O=P1(N(CCCl)CCCl)OCCCN1CCCl (stereo unspecified),inactive: 1.99%
17,COc1ccc2nc(NP(=O)(c3ccccc3)c3ccccc3)sc2c1,inactive: -15.2%
18,COc1cc(I)ccc1[As](=O)(O)O,inactive: 0.87%
19,Cc1c2c(nc3ccccc13)SC(C(Cl)Cl)C2 (stereo unspecified),inactive: -1.94%
20,O=C(OC1CN2CCC1CC2)C12CC3CC(CC(C3)C1)C2 (stereo unspecified),inactive: 3.2%
21,Cc1cc(=O)[nH]c(N[N+](=O)[O-])n1,inactive: -0.12%
22,O=[N+]([O-])c1cc(Oc2ccc([N+](=O)[O-])cc2C(F)(F)F)cc([N+](=O)[O-])c1,inactive: -2.8%
23,COc1ccc(N/C(=N/P(=O)(N2CCOCC2)N2CCOCC2)N2CCOCC2)cc1,inactive: -3.03%
